# Assay results from PubChem BioAssay AID1515 (The Scripps Research Institute Molecular Screening Center, 2009).
# Chains of the proteins cited; added tags and fusions are not shown.
# UniProt O75884, whole entry: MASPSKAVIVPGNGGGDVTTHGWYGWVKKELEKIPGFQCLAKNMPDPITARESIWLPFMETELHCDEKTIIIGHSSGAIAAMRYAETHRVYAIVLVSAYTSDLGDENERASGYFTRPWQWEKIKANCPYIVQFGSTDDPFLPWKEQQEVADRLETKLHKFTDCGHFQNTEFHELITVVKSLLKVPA
# This is a selection; strong and weak results do not stand in their true shares. Active and inactive are the calls of the source.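 Rule for the calls: active = inhibition above the campaign mean of all tested compounds plus 3 SD (cut at about 14% in these data); inactive = the rest.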
# Biological target: Serine hydrolase RBBP9 (Homo sapiens) (UniProt O75884)
# Assay: human RBBP9 inhibitors, primary screen, biochemical, fluorescence polarization, FP-Rh probe, HTS (AID 1515);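 note: plate controls were DMSO wells with RBBP9 for no effect and wells lacking RBBP9 protein for full effect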
# Conditions: recombinant RBBP9, FP-Rh probe fluorescence polarization; at 7.94 µM; active compounds read high
row,Compound,inhibition
1,CC(C)(C)c1ccc(OP(C)(=O)O)cc1,inactive: -0.67%
2,COc1ccccc1OP(C)(=O)Nc1ccccc1Br (stereo not given),inactive: -3.6%
3,CP(=O)(Nc1ccc(Cl)cc1)Oc1ccc(F)cc1 (stereo not given),inactive: -5.85%
4,CN(C)C(=O)c1c([N+](=O)[O-])cc([N+](=O)[O-])cc1[N+](=O)[O-],inactive: -5.49%
5,CCN(CC)CC(O)COC(=O)C(O)(c1ccccc1)C1CCCCC1 (stereo not given),inactive: -5.21%
6,COc1ccc(OP(C)(=O)Nc2ccc(Br)cc2)cc1 (stereo not given),inactive: -9.12%
7,COc1ccccc1OP(C)(=O)Nc1c(C)n(C)n(-c2ccccc2)c1=O (stereo not given),inactive: -3.47%
8,O=C(OCCCN1CCCC1)C(O)(c1ccccc1)C1CCCCC1 (stereo not given),inactive: 1.67%
9,CP(=O)(Oc1ccccc1)N1CCOC1=O (stereo not given),inactive: -5.04%
10,CCc1ccc(OP(C)(=O)Nc2cccnc2)cc1 (stereo not given),inactive: -6.94%
11,CCOC(=O)c1ccc(NP(C)(=O)Oc2ccc(Cl)cc2)cc1 (stereo not given),inactive: -0.28%
12,CP(=O)(OC12CC3CC(CC(C3)C1)C2)OC12CC3CC(CC(C3)C1)C2,inactive: -5.36%
13,Cc1nc2ccc3ccccc3c2o1.O=[N+]([O-])c1cc([N+](=O)[O-])c(O)c([N+](=O)[O-])c1,inactive: -1.96%
14,CP(=O)(OCCOc1ccccc1)OCCOc1ccccc1,inactive: -8.74%
15,CP(=O)(Nc1ccc(Cl)cc1Cl)Oc1ccccc1 (stereo not given),inactive: -2.25%
16,Cc1cc(C)cc(OP(C)(=O)Nc2cccc(C(F)(F)F)c2)c1 (stereo not given),inactive: -5.2%
17,COc1ccccc1OP(C)(=O)Nc1ccc(C)c(C)c1 (stereo not given),inactive: -7.61%
18,COc1ccc(OP(C)(=O)Nc2ccccc2Br)cc1 (stereo not given),inactive: -5.56%
19,O=[N+]([O-])c1cc([N+](=O)[O-])c(Nc2ccccn2)c([N+](=O)[O-])c1,inactive: -1.94%
20,Cc1c(NP(C)(=O)Oc2ccc(C(C)C)cc2)c(=O)n(-c2ccccc2)n1C (stereo not given),inactive: -5.58%

row,Compound,inhibition
1,CP(=O)(Nc1ccccn1)Oc1ccccc1 (stereo not given),inactive: -7.45%
2,COc1ccccc1OP(C)(=O)Nc1ccc(C)cc1C (stereo not given),inactive: -8.44%
3,CCc1ccc(OP(C)(=O)O)cc1,inactive: -0.52%
4,COc1ccccc1OP(C)(=O)Nc1ccc(Br)cc1 (stereo not given),inactive: -7.01%
5,COc1ccc(OP(C)(=O)Nc2ccccn2)cc1 (stereo not given),inactive: -4.97%
6,CN(C)CCOC(=O)C(O)(c1ccccc1)C1CCCC1 (stereo not given),inactive: -13.6%
7,O=C(OC1CN2CCC1CC2)c1ccc([N+](=O)[O-])cc1 (stereo not given),inactive: -1.33%
8,O=C(OCCN1CCN(CCOCc2ccccc2)CC1)C(O)(c1ccccc1)c1ccccc1,inactive: -1.65%
9,CP(=O)(Nc1ccccc1F)Oc1ccccc1 (stereo not given),inactive: -10.9%
10,CC(C)c1ccc(OP(C)(=O)Nc2ccc(SC(F)(F)F)cc2)cc1 (stereo not given),inactive: 1.66%
11,CCN(CC)CCCOC(=O)C(O)(c1ccccc1)C1CCCCC1 (stereo not given),inactive: -0.06%
12,CP(=O)(Nc1ccccc1)Oc1ccc(F)cc1 (stereo not given),inactive: -7.48%
13,CCCCCOc1ccc(NP(C)(=O)Oc2ccc(Cl)cc2Cl)cc1 (stereo not given),inactive: -4.63%
14,CCOC(=O)c1ccc(NP(C)(=O)Oc2ccc(F)cc2)cc1 (stereo not given),inactive: -12.6%
15,COc1ccc(OP(C)(=O)Nc2ccc(SC(F)(F)F)cc2)cc1 (stereo not given),inactive: 1.25%
16,O=[N+]([O-])c1ccc(OP2(=O)COCCO2)cc1 (stereo not given),inactive: 1.74%
17,O=[N+]([O-])c1cc([N+](=O)[O-])c(NCC2CCS(=O)(=O)C2)c([N+](=O)[O-])c1 (stereo not given),inactive: -2.96%
18,Cc1cc(-c2cccc3ccccc23)c(C)cn1.O=[N+]([O-])c1cc([N+](=O)[O-])c(O)c([N+](=O)[O-])c1,inactive: -11.4%
19,COc1ccc(OP(C)(=O)Nc2cccc(Br)c2)cc1 (stereo not given),inactive: 10.7%
20,CN(C)CCOC(=O)C(O)(c1ccccc1)C1CCCCC1 (stereo not given),inactive: -7.3%

row,Compound,inhibition
1,COc1ccc(NP(C)(=O)Oc2ccccc2OC)cc1 (stereo not given),inactive: -4.58%
2,CP(=O)(Nc1ccc2c(c1)OCCO2)Oc1ccccc1 (stereo not given),inactive: -9.93%
3,Cc1ccccc1NP(C)(=O)Nc1ccccc1C,inactive: -8.58%
4,CP(=O)(Nc1ccc(SC(F)(F)F)cc1)Oc1ccc(F)cc1 (stereo not given),inactive: -5.19%
5,CCOP(C)(=S)SCC(=O)NC(C)(CC)C(=O)O (stereo not given),inactive: -2.24%
6,Cc1nc2ccc3ccccc3c2s1.O=[N+]([O-])c1cc([N+](=O)[O-])c(O)c([N+](=O)[O-])c1,inactive: -3.31%
7,O=[N+]([O-])c1cc([N+](=O)[O-])c(-n2nnc3ccccc32)c([N+](=O)[O-])c1,inactive: -7.01%
8,COc1ccccc1OP(C)(=O)Nc1c(C)cccc1C (stereo not given),inactive: 1.11%
9,CN1CCCCC1COC(=O)C1(O)c2ccccc2CCc2ccccc21 (stereo not given),inactive: 3.97%
10,CP(=O)(Nc1ccc(SC(F)(F)F)cc1)Oc1ccccc1 (stereo not given),inactive: -6.2%
11,CCCOc1ccc(NP(C)(=O)Oc2ccc(Cl)cc2)cc1 (stereo not given),inactive: 9.15%
12,O=[N+]([O-])c1cc([N+](=O)[O-])c(Nc2nnnn2CCO)c([N+](=O)[O-])c1,inactive: -0.57%
13,CCOC(=O)C(CC)C1=NC(C)(C)Cc2ccccc21.O=[N+]([O-])c1cc([N+](=O)[O-])c(O)c([N+](=O)[O-])c1 (stereo not given),inactive: 2.68%
14,CC1=NCCc2c1[nH]c1ccccc21.O=[N+]([O-])c1cc([N+](=O)[O-])c(O)c([N+](=O)[O-])c1,inactive: -10.8%
15,O=C(O)c1cccc(Nc2c([N+](=O)[O-])cc([N+](=O)[O-])cc2[N+](=O)[O-])c1,inactive: 4.04%
16,Cc1ccc(C)c(NP(C)(=O)Oc2ccccc2)c1 (stereo not given),inactive: -9.2%
17,CP(=O)(Nc1cccc(Br)c1)Oc1ccccc1 (stereo not given),inactive: 0.2%
18,Cc1cc(C)cc(OP(C)(=O)Nc2ccccn2)c1 (stereo not given),inactive: -3.88%
19,COc1ccccc1OP(C)(=O)Nc1cccc(Br)c1 (stereo not given),inactive: 0.71%
20,CCOC(=O)c1ccc(NP(C)(=O)Oc2cc(C)cc(C)c2)cc1 (stereo not given),inactive: -4.1%
